Yeast mating assay 2: variants of the scFv Ab-95

Values reported by Engelhart et al. 2022, doi:10.1038/s41597-022-01779-4 (FLAb copy).

Antigen: PDVDLGDISGINAS, a 14-residue peptide of the SARS-CoV-2 spike HR2 region.

Parent scFv Ab-95: VH joined to VL by a 15-residue (Gly4Ser)3 linker. Changes lie in the light chain CDRs alone.
VH: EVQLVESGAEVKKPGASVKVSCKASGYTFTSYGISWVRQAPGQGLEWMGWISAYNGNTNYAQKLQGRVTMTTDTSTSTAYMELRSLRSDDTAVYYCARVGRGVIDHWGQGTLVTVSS
VL: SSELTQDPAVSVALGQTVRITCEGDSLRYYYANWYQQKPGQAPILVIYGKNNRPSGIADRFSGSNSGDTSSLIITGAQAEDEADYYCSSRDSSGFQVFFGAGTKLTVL

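The starting antibody came from a phage panning campaign against this peptide. Library AAYL52 holds single substitutions and randomly drawn double and triple substitutions in the CDRs. The scFvs were displayed on barcoded MATa yeast, the peptide on MATalpha yeast. Mating (16 h, 30 °C) was followed by selection of diploids and sequencing of their barcodes. Each replicate has its own calibration line, from reference interactions of the BCL2 family. Each pool was mated in three replicate cultures.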

Positions count from residue 1 of the parent VL; S26F puts F in place of S. Every variant below is changed at Y29 of the VL (sequential numbering). The Kd shown is the geometric mean over detected replicates; a lower Kd is a better binder. An entry "no signal" has no value in the source: the pair was not observed among the diploids in any replicate. This suggests poor binding but is not conclusive. In this assay the parent's reference entry averaged 200 nM; its copy inside this library read 180 nM. As a blank, each scFv also met three strains without target: over library AAYL52, 28% of these pairings were detected, typically at 8.2 µM and seldom below 800 nM. For each scFv, signals with the empty controls are counted beside the result.

The variant S26F/Y29K/N33W gave 8.1 µM (1 of 3 replicates; controls 3 of 9).
The variant Y29D/F95Y gave 90 nM (3 of 3 replicates; controls 3 of 9).
The variant S26L/Y29A gave no signal (0 of 3 replicates; controls 3 of 9).
The variant Y29H/Y30W/S55N gave 220 nM (3 of 3 replicates; controls 3 of 9).
The variant Y29S/A32Y/S93K gave 1.8 µM (2 of 3 replicates; controls 2 of 9).
The variant Y29K/Y30M/Q96Y gave 63 nM (3 of 3 replicates; controls 1 of 9).
The variant Y29K/Y31N/N51K gave 1.8 µM (3 of 3 replicates; controls 3 of 9).
The variant D25Q/S26R/Y29T gave 7.8 µM (2 of 3 replicates; controls 2 of 9).
The variant Y29S/Y30M/N33G gave 12 µM (3 of 3 replicates; controls 2 of 9).
The variant Y29C/N51K/Q96E gave 3.6 µM (3 of 3 replicates; controls 3 of 9).
The variant Y29F/K50H/N52Y gave 2.7 µM (3 of 3 replicates; controls 4 of 9).
The variant Y29A/Y31H/N33K gave 2.7 µM (2 of 3 replicates; controls 4 of 9).
The variant Y29E/A32K/N51A gave no signal (0 of 3 replicates; controls 2 of 9).
The variant Y29R/K50C/F95C gave 5.1 µM (3 of 3 replicates; controls 2 of 9).
The variant Y29G/N51Q/F95V gave 460 nM (3 of 3 replicates; controls 6 of 9).
The variant Y29V/D91L/S93V gave 24 µM (1 of 3 replicates; controls 2 of 9).
The variant D25G/Y29T/Y30R gave 31 nM (3 of 3 replicates; controls 4 of 9).
The variant Y29I/N51V/S89H gave 91 µM (1 of 3 replicates; controls 2 of 9).
The variant R28L/Y29F/R90C gave 8.9 µM (3 of 3 replicates; controls 4 of 9).
The variant Y29R/R53E/D91E gave 8.6 µM (2 of 3 replicates; controls 1 of 9).
The variant Y29F/R53D/G94H gave 9.6 µM (2 of 3 replicates; controls 3 of 9).
The variant Y29Q/G49F/V97Q gave 15 µM (3 of 3 replicates; controls 1 of 9).
The variant R28M/Y29D/Y30K gave 14 nM (3 of 3 replicates; controls 1 of 9).
The variant D25Y/Y29R/S92A gave 210 nM (3 of 3 replicates; controls 3 of 9).
The variant S26I/Y29V/Y30P gave 200 nM (3 of 3 replicates; controls 3 of 9).
The variant E23W/Y29L/G94H gave 13 µM (3 of 3 replicates; controls 3 of 9).
The variant G24C/Y29V/Y31W gave no signal (0 of 3 replicates; controls 0 of 9).
The variant S26K/Y29R/G49T gave 3.4 µM (1 of 3 replicates; controls 0 of 9).
The variant Y29A gave 46 nM (3 of 3 replicates; controls 4 of 9).
The variant Y29Q/A32Q/S88H gave no signal (0 of 3 replicates; controls 0 of 9).
The variant Y29H/N33M/V97T gave 15 µM (1 of 3 replicates; controls 4 of 9).
The variant L27V/Y29C/F95R gave 630 nM (3 of 3 replicates; controls 3 of 9).
The variant Y29D gave 22 nM (3 of 3 replicates; controls 2 of 9).
The variant Y29W/R53D/Q96A gave 30 µM (2 of 3 replicates; controls 4 of 9).
The variant Y29K/P54R gave 2.1 µM (3 of 3 replicates; controls 2 of 9).
The variant L27G/Y29P gave 170 nM (3 of 3 replicates; controls 2 of 9).
The variant Y29W/N33R/S89Q gave 500 nM (3 of 3 replicates; controls 2 of 9).
The variant Y29D/P54Q/F98K gave 280 nM (3 of 3 replicates; controls 3 of 9).
The variant Y29V/D91I/V97M gave 880 nM (2 of 3 replicates; controls 1 of 9).
The variant E23K/Y29C/S89T gave 1.9 µM (3 of 3 replicates; controls 2 of 9).
The variant G24E/Y29V/D91A gave 14 µM (2 of 3 replicates; controls 1 of 9).
The variant E23Y/Y29G gave 13 nM (3 of 3 replicates; controls 4 of 9).
The variant Y29Q/K50L/S92A gave 60 nM (3 of 3 replicates; controls 5 of 9).
The variant E23C/Y29T/S92A gave 91 nM (3 of 3 replicates; controls 3 of 9).
The variant Y29W/A32C/G94W gave 3.5 µM (3 of 3 replicates; controls 3 of 9).
The variant S26W/Y29K gave no signal (0 of 3 replicates; controls 5 of 9).
The variant S26Y/Y29C/N51H gave 53 nM (3 of 3 replicates; controls 2 of 9).
The variant Y29H/S88Q/F98L gave 500 nM (3 of 3 replicates; controls 2 of 9).
The variant L27G/R28A/Y29G gave 200 nM (3 of 3 replicates; controls 1 of 9).
The variant Y29M/A32Y/N33L gave 18 µM (2 of 3 replicates; controls 6 of 9).

Repeated from above, the 3 best binders with a signal in all replicates:

changes	Kd (apparent)	detected	control signals
E23Y/Y29G	13 nM	3 of 3	4 of 9
R28M/Y29D/Y30K	14 nM	3 of 3	1 of 9
Y29D	22 nM	3 of 3	2 of 9